{"source": "paper PMC3867503", "about": "“Structure-Activity Relationships of Benzbromarone Metabolites and Derivatives as EYA Inhibitory Anti-Angiogenic Agents” (PLoS ONE, 2013)", "origin": "cited, not measured here", "molecular_target": "T1, recombinant human EYA3 (Homo sapiens, UniProt Q99504)", "T1 construct": "a splice variant of Q99504 corresponding to isoform 2 and missing residues 1 - 126; made in house", "T1 sequence (Q99504 1-447 isoform Q99504-2)": "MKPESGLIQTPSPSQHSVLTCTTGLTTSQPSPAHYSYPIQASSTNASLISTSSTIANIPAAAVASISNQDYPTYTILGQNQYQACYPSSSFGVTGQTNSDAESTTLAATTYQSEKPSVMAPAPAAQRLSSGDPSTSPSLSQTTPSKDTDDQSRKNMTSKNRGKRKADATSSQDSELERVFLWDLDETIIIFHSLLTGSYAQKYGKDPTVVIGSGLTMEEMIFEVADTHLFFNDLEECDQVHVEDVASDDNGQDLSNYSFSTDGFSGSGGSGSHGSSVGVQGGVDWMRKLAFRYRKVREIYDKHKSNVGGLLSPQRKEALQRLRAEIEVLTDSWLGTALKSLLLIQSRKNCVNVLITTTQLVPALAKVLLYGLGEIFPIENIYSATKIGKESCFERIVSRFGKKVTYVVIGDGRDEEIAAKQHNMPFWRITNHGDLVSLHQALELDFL", "set-up": "method as in PMID 22545090", "details": "recombinant EYA3, substrate pNPP; reported previously; read-out: IC50 (95% confidence intervals), pNPP hydrolysis by EYA3; cited from earlier work", "data": [{"smiles": "CCCCc1oc2ccccc2c1C(=O)c1ccc(O)cc1", "note": "[Compound 1b]", "values": [{"measurement": "IC50", "result": 9.7, "unit": "µM"}]}]}
